# Assay results as given in patent US20150148256A1, “BIOLUMINESCENCE IMAGING-BASED SCREENING ASSAY AND INHIBITORS OF ABCG2” (THE JOHNS HOPKINS UNIVERSITY, priority 2008, published 2015).
# Tested on: ABCG2-overexpressing NCI-H460/MX20 cells
# Assay: Mitoxantrone (MTX) resensitization assay (XTT)
# Settings: H460/MX20 cells with MTX
smiles,measurement,value
CC(=O)c1ccc2c(c1)N(CCCN1CCC(CCO)CC1)c1ccccc1S2 [piperacetazine],MTX (mitoxantrone resensitization assay),Y
